The source of these data is US20090275730A1, “Temperature responsive depsipeptide polymer” (priority 2004, published 2009).

The text on this series:
However, the depsipeptide unit is not considered to be a material which exerts temperature responsibility in an aqueous solvent containing no organic solvent. […] Accordingly, the depsipeptide unit -Gly-X2-Cly-Hmb-Pro-(X2=any α-amino acid residue) is thought to be unsuitable as a temperature responsive material and thus has not been investigated intensively.

With Poly(Gly-Val-Gly-Hmb-Ala-Pro), the “temperature responsibility in aqueous solvent” value is “temperature responsibility thereof was confirmed”. For “Poly(Gly^1-Val^2-Gly^3-Hmb^4-Pro^5) [poly(Gly-Val-Gly-Hmb-Pro)]”, the “temperature responsibility in aqueous solvent” value is listed as “had temperature responsibility” and the water solubility result is given as “had water solubility”.
